Target: Sphingosine 1-phosphate receptor 1 (Homo sapiens, UniProt P21453)
Assay: Displacement of [33P]sphingosine 1 phosphate from human S1P1 receptor expressed in CHO cells
Assay type: cell-based

Protein sequences, listed by entry. Tags and fused reporters are not part of them.
UniProt P21453, whole entry: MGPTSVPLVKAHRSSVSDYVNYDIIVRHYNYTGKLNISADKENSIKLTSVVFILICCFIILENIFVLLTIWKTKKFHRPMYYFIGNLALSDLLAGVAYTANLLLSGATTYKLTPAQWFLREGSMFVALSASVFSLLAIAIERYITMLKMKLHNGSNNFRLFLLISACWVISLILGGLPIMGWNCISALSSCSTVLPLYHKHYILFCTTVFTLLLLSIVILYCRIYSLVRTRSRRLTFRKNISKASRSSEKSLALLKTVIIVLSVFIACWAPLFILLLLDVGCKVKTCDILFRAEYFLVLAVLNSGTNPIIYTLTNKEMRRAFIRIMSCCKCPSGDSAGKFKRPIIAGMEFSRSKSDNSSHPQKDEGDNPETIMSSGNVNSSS

IC50: 840 nM (antagonist)
SMILES: CCCCCCCCc1ccc(CCC(N)(CO)CO)cc1 [FINGOLIMOD]

Source: ChEMBL document CHEMBL1149292, “A rational utilization of high-throughput screening affords selective, orally bioavailable 1-benzyl-3-carboxyazetidine sphingosine-1-phosphate-1 receptor agonists” (J Med Chem, 2004)
